According to US10040791B2, “Isoxazole derivative as mutant isocitrate dehydrogenase 1 inhibitor” (Daiichi Sankyo Company, Limited, priority 2014, dated 2018):
Counter-ions that a name gives are not always drawn. Like-named read-outs stand apart in the source and are kept apart here.

Sequences of proteins named here, by UniProt entry; tags and fusion partners are left off.
UniProt O75874, whole entry R132H: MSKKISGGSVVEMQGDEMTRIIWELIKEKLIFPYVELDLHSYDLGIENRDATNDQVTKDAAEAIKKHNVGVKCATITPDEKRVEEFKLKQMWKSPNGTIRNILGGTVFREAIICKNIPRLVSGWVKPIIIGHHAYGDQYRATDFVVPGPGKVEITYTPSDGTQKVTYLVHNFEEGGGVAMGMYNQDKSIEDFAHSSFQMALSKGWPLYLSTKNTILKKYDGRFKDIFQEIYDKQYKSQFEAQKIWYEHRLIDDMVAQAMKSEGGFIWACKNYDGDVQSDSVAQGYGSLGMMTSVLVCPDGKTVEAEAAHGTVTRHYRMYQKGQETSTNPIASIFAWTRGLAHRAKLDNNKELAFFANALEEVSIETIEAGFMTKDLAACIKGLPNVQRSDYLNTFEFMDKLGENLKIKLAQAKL

Experiments:
[1] = test system: IDH1/R132H mutant glioblastoma A1074-transplanted mouse model; test: Antitumor activity against IDH1/R132H mutant glioblastoma A1074-transplanted mouse model; conditions: NOG mice with subcutaneous A1074; mixed feed 0.3% compound for 4 weeks; FIG. 3 and 4
[2] = test system: AML mouse models harboring 4 genes including IDH1R132H; test: 2-HG measurement in AML mouse models harboring 4 genes including IDH1R132H; assay type: in vivo; conditions: AML mice, suspension 7.5, 15, 30 mg/mL in 0.5% methylcellulose at 10 mL/kg, three times at intervals of twice a day, 6, 16, 24 hours after final administration
[3] = test system: IDH1R132H-expressing TF-1 cells (TF-1/IDH1R132H); test: Inhibitory activity of 2-HG production using IDH1R132H-expressing TF-1 cells; assay type: cell-based, human; conditions: Homo sapiens
[4] = test system: TF-1/IDH1R132H cells; test: Inhibitory activity of TF-1/IDH1R132H cell growth (ATPlite); assay type: cell-based, human; conditions: Homo sapiens, read-out: Test Example 4 IC50
[5] = target: IDH1R132H (Homo sapiens (Human), UniProt O75874, R132H); test: Inhibitory activity against IDH1R132H enzyme (NADPH detection, WST-8); assay type: biochemical; conditions: 12 nM, residual NADPH detected with WST-8, read-out: Test Example 1 IDH1 R132H IC50
[6] = 2-HG production, IDH1R132H-expressing TF-1 cells, read-out: Test Example 2 IC50
[7] = TF-1, read-out: Test Example 2 IC50 (nM)

Cc1cn(C(=O)c2c(-c3c(Cl)cc(Cl)cc3Cl)noc2C(C)(C)F)c2cccc(/C=C/C(=O)O)c12 [Example 168, (2E)-3-(1-{[5-(2-Fluoropropan-2-yl)-3-(2,4,6-trichlorophenyl)-1,2-oxazol-4-yl]carbonyl}-3-methyl-1H-indol-4-yl)prop-2-enoic acid tert-butylamine salt]
tumor growth (tumor volume, tumor weight) [1]: inhibit tumor growth | 2-HG concentration in the plasma ([2]; FIG. 1A): remarkably decreased | 2-HG level in the bone marrow cells ([2]; FIG. 1B): remarkably decreased

C=CC(=O)N1CC2C(C1)C2c1onc(-c2c(Cl)cc(Cl)cc2Cl)c1C(=O)n1cc(C)c2c(/C=C/C(=O)O)cccc21 (stereo not drawn) [Example 124]
IC50 [3, 6]: 161 nM | IC50 [4]: > 900 nM | IC50 [5]: 61 nM

CNC1(c2onc(-c3c(Cl)cc(Cl)cc3Cl)c2C(=O)n2cc(C)c3c(/C=C/C(=O)O)cccc32)CCC1 [Example 83, (2E)-3-(3-Methyl-1-{[5-[1-(methylamino)cyclobutyl]-3-(2,4,6-trichlorophenyl)-1,2-oxazol-4-yl]carbonyl}-1H-indol-4-yl)prop-2-enoic acid]
IC50 [3, 6]: 43 nM | IC50 [4]: 168 nM | IC50 [5]: 11 nM

Cc1cn(C(=O)c2c(-c3c(Cl)cc(Cl)cc3Cl)noc2C(C)(C)F)c2cccc(/C=C/C(=O)O)c12 [Example 21, (2E)-3-(1-{[5-(2-Fluoropropan-2-yl)-3-(2,4,6-trichlorophenyl)-1,2-oxazol-4-yl]carbonyl}-3-methyl-1H-indol-4-yl)prop-2-enoic acid]
IC50 [3, 7]: 49 nM | IC50 [4]: 58 nM | IC50 [5]: 12 nM

CC(C)(F)c1onc(-c2c(Cl)cc(Cl)cc2Cl)c1C(=O)n1cc2c3c(cccc31)/C(=C/C(=O)O)CC2 [Example 13, (2E)-[1-{[5-(2-Fluoropropan-2-yl)-3-(2,4,6-trichlorophenyl)-1,2-oxazol-4-yl]carbonyl}-3,4-dihydrobenzop[cd]indol-5(1H)-ylidene]ethanoic acid]
IC50 [3, 6]: 55 nM | IC50 [4]: 151 nM | IC50 [5]: 18 nM

CC(C)(F)c1onc(-c2c(Cl)cc(Cl)cc2Cl)c1C(=O)n1ccc2c3c(ccc21)CCC(C(=O)O)C3 (stereo not drawn) [Example 18, 3-{[5-(2-Fluoropropan-2-yl)-3-(2,4,6-trichlorophenyl)-1,2-oxazol-4-yl]carbonyl}-6,7,8,9-tetrahydro-3H-Benzo[e]indole-8-carboxylic acid]
IC50 [3, 6]: 121 nM | IC50 [4]: 447 nM | IC50 [5]: 19 nM

Cc1cn(C(=O)c2c(-c3c(Cl)cc(Cl)cc3Cl)noc2C2(C)CCC2)c2cccc(/C=C/C(=O)O)c12 [Example 10, (2E)-3-(3-Methyl-1-{[5-(1-methylcyclobutyl)-3-(2,4,6-trichlorophenyl)-1,2-oxazol-4-yl]carbonyl}-1H-indol-4-yl)prop-2-enoic acid]
IC50 [3, 6]: 73 nM | IC50 [4]: 152 nM | IC50 [5]: 18 nM

Cc1cc(Cl)cc(C)c1-c1noc(C(C)(C)F)c1C(=O)n1cc(C)c2c(/C=C/C(=O)O)cccc21 [Example 55, (2E)-3-(1-{[3-(4-Chloro-2,6-dimethylphenyl)-5-(2-fluoropropan-2-yl)-1,2-oxazol-4-yl]carbonyl}-3-methyl-1H-indol-4-yl)prop-2-enoic acid]
IC50 [3, 6]: 96 nM | IC50 [4]: 130 nM | IC50 [5]: 14 nM

Cc1cn(C(=O)c2c(-c3c(Cl)cc(Cl)cc3Cl)noc2C2(CN(C)C)CCC2)c2cccc(/C=C/C(=O)O)c12 [Example 88, (2E)-3-(1-{[5-{1-[(Dimethylamino)methyl]cyclobutyl}-3-(2,4,6-trichlorophenyl)-1,2-oxazol-4-yl]carbonyl}-3-methyl-1H-indol-4-yl)prop-2-enoic acid]
IC50 [3, 6]: 70 nM | IC50 [4]: 190 nM | IC50 [5]: 23 nM

Cc1cn(C(=O)c2c(-c3cc(F)c(Cl)cc3Cl)noc2C(C)(C)F)c2cccc(/C=C/C(=O)O)c12 [Example 63, (2E)-3-(1-{[3-(2,4-Dichloro-5-fluorophenyl)-5-(2-fluoropropan-2-yl)-1,2-oxazol-4-yl]carbonyl}-3-methyl-1H-indol-4-yl)prop-2-enoic acid]
IC50 [3, 6]: 184 nM | IC50 [4]: 290 nM | IC50 [5]: 15 nM

CCc1cn(C(=O)c2c(-c3c(Cl)cc(Cl)cc3Cl)noc2C(C)(C)F)c2cccc(/C=C/C(=O)O)c12 [Example 65, (2E)-3-(3-Ethyl-1-{[5-(2-fluoropropan-2-yl)-3-(2,4,6-trichlorophenyl)-1,2-oxazol-4-yl]carbonyl}-1H-indol-4-yl)prop-2-enoic acid]
IC50 [3, 6]: 68 nM | IC50 [4]: 263 nM | IC50 [5]: 22 nM

C#CC(=O)N1CCC(c2onc(-c3c(Cl)cc(Cl)cc3Cl)c2C(=O)n2ccc3c(/C=C/C(=O)O)cccc32)CC1 [Example 100]
IC50 [3, 6]: 41 nM | IC50 [4]: 36 nM | IC50 [5]: 37 nM

C=CC(=O)N1CCN(c2onc(-c3c(Cl)cc(Cl)cc3Cl)c2C(=O)n2ccc3c(/C=C/C(=O)O)cccc32)C2(CC2)C1 [Example 150, (2E)-3-(1-{[5-[7-Acryloyl-4,7-diazaspiro[2.5]oct-4-yl]-3-(2,4,6-trichlorophenyl)-1,2-oxazol-4-yl]carbonyl}-1H-indol-4-yl)prop-2-enoic acid]
IC50 [3, 6]: 214 nM | IC50 [4]: > 900 nM | IC50 [5]: 26 nM

Cc1cn(C(=O)c2c(-c3c(Cl)cc(Cl)cc3Cl)noc2C2(N(C)C)CCC2)c2cccc(/C=C/C(=O)O)c12 [Example 81, (2E)-3-(1-{[5-[1-(Dimethylamino)cyclobutyl]-3-(2,4,6-trichlorophenyl)-1,2-oxazol-4-yl]carbonyl}-3-methyl-1H-indol-4-yl)prop-2-enoic acid]
IC50 [3, 6]: 24 nM | IC50 [4]: 30 nM | IC50 [5]: 26 nM

C=CC(=O)N1CCC(O)(c2onc(-c3c(Cl)cc(Cl)cc3Cl)c2C(=O)n2cc(C)c3c(/C=C/C(=O)O)cccc32)CC1 [Example 123]
IC50 [3, 6]: 24 nM | IC50 [4]: > 900 nM | IC50 [5]: 28 nM

C=CC(=O)N1CCC(c2onc(-c3cc(F)c(Cl)cc3Cl)c2C(=O)n2cc(C)c3c(/C=C/C(=O)O)cccc32)CC1 [Example 121]
IC50 [3, 6]: 74 nM | IC50 [4]: > 900 nM | IC50 [5]: 43 nM

Cc1cn(C(=O)c2c(-c3c(Cl)cc(Cl)cc3Cl)noc2C(C)(F)F)c2cccc(/C=C/C(=O)O)c12 [Example 51, (2E)-3-(1-{[5-(1,1-Difluoroethyl)-3-(2,4,6-trichlorophenyl)-1,2-oxazol-4-yl]carbonyl}-3-methyl-1H-indol-4-yl)prop-2-enoic acid]
IC50 [3, 7]: 165 nM | IC50 [4]: 271 nM | IC50 [5]: 15 nM

CC(C)(C)c1onc(-c2c(Cl)cc(Cl)cc2Cl)c1C(=O)n1cc(C(F)F)c2c(/C=C/C(=O)O)cccc21 [Example 72, (2E)-3-(1-{[5-(tert-Butyl)-3-(2,4,6-trichlorophenyl)-1,2-oxazol-4-yl]carbonyl}-3-(difluoromethyl)-1H-indol-4-yl)prop-2-enoic acid]
IC50 [3, 6]: 52 nM | IC50 [4]: 77 nM | IC50 [5]: 25 nM
